Experimental findings from patent US20230081390A1, “INHIBITORS OF RAF KINASES” (Kinnate Biopharma Inc., priority 2019, published 2023) are described below.

Sequences of proteins named here, by UniProt entry; tags and fusion partners are left off.
UniProt P04049, whole entry: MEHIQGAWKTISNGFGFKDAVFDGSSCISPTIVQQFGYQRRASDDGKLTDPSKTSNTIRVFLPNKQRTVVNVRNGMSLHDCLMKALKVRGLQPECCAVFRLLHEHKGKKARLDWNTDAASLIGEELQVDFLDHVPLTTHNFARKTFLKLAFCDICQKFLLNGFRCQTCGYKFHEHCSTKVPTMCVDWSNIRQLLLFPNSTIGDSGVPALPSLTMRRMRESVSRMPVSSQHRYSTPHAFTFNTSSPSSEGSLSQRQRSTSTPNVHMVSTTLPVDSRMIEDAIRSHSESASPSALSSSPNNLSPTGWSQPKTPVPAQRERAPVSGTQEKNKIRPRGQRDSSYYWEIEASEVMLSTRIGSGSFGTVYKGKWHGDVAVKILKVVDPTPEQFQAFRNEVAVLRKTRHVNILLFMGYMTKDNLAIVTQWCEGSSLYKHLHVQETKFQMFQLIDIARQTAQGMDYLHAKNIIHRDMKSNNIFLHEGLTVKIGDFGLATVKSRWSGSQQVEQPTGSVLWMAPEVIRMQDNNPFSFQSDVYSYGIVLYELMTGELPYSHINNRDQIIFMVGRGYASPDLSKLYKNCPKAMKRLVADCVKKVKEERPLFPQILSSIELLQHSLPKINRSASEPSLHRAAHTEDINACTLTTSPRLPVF

The target in the assay is human RAF1 (Homo sapiens, UniProt P04049). Description: Protein kinase assay (33P-ATP filter binding), human RAF1, 10-dose IC50. It is filed as biochemical. Particulars: read-out: RAF-1 IC50, MEK1 (K97R) substrate 3 micromolar, ATP 10 micromolar.

Each structure is given as a SMILES string.

Regarding `Cc1cc(F)c(NC(=O)N2CCC=C(C(F)(F)F)C2)cc1-c1cc(OCCO)nc(N2CCOCC2)c1`, the IC50 was less than 10 nM.
